# Test results from PubChem BioAssay AID588407 (The Scripps Research Institute Molecular Screening Center, 2011).
# Chains of the proteins cited; added tags and fusions are not shown.
# UniProt P35372, whole entry, looked up: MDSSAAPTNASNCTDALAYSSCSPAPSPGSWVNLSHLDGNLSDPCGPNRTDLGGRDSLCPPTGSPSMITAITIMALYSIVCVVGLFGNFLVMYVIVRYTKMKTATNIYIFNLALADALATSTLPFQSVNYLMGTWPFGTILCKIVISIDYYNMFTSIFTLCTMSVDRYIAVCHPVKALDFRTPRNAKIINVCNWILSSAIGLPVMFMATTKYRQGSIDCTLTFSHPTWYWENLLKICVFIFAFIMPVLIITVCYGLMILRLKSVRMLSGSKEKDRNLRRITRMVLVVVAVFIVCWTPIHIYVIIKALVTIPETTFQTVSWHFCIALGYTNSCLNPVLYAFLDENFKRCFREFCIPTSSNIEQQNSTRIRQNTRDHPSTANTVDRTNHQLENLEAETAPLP
# UniProt P41143, whole entry, looked up: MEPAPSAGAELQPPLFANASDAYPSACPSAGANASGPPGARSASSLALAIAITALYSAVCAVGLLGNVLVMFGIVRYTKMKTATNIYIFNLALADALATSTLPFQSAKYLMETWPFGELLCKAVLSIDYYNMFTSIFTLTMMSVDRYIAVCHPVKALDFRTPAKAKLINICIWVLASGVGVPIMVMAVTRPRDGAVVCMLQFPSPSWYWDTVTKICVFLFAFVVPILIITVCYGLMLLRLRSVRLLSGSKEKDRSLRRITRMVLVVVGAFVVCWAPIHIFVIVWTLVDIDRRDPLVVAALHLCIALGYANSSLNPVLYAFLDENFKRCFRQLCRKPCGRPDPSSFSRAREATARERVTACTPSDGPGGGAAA
# Calls of active or inactive are those of the source. The rule behind the calls is not given here.
# Molecular target: Mu-type opioid receptor (Homo sapiens) + Delta-type opioid receptor (Homo sapiens) (UniProt P35372+P41143)
# Experiment: agonists of MOR-DOR heterodimerization, dose response, cell-based, luminescence (AID 588407);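 note: potency of agonists raising the heterodimer signal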
# Conditions: cells
row,Structure (SMILES),EC50
1,CCN(CC)c1ccc(CNc2nc3ccccc3n2CCN2CCCCC2)cc1,inactive
2,CCn1c(N)[n+](CC(=O)Nc2ccc(SC(F)F)cc2)c2ccccc21,7.09 µM
3,Cc1ccc(C)c(CN2CCC(n3nnc4cc(F)ccc43)CC2)c1,inactive
